Here are results for five molecules from paper PMC6838683, “Discovery of Human Signaling Systems: Pairing Peptides to G Protein-Coupled Receptors” (Cell, 2019).

Amino acid sequences for entries named in this document (tags omitted).
UniProt P41143, whole entry: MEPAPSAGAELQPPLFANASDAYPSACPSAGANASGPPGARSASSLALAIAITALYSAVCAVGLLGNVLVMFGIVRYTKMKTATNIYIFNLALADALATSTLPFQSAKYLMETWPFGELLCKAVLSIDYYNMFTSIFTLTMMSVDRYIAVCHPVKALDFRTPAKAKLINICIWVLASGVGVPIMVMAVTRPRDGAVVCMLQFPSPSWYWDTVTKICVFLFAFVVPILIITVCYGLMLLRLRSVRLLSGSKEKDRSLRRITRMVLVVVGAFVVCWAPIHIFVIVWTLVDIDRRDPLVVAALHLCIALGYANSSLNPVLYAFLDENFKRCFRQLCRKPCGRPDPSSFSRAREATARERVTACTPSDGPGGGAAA

Test [1] addresses human GPCRs. Details: method as in Guide to Pharmacology database. The settings on record: max reported value, ref Guide to Pharmacology database, cited from earlier work. The source says: Supplement mmc1.xlsx, sheet "HumanGPCRLigands" | column: pKi_value; pKd_value; pEC50_value; pIC50_value
Test [2] has as its target T1, OPRD1 (Homo sapiens, UniProt P41143).
T1 construct: host or cells: HTLA cells (HEK293-derived)
The test can be described thus: β-arrestin recruitment (Tango), known peptide receptors. The following applies: endogenous ligand(s) included in peptide library. It is filed as cell-based. The source says: Supplement mmc6.xlsx, sheet "Peptide GPCR controls" | column: Confirmed?
(In general: Recruitment of arrestin is a read-out of receptor activation apart from second messengers.)

[3] abbreviates: receptor LHCGR (lshr_human, P22888).

Take hCG: in test [1] (setting [3]), the pKd_value was 11.8. With Beta-endorphin, the “Confirmed? (confirmation of b-arrestin recruitment)” value in test [2] is “No”. Turning to α-CGRP, in test [1] (receptor calcr_human (CALCR), Calcitonin receptors, Class B1 (Secretin)), the pEC50_value is on record as 8.4. As to `CC(=O)OCC[N+](C)(C)C` [acetylcholine], the pKi_value in test [1] (receptor acm1_human (CHRM1, P11229)) was 4.9. For LH, the pIC50_value in test [1] (setting [3]) is recorded as 10.9.
